Patent US20120178701A1 (PALATIN TECHNOLOGIES, published 2012)

Amino acid sequences for entries named in this document (tags omitted).
UniProt P32245, whole entry: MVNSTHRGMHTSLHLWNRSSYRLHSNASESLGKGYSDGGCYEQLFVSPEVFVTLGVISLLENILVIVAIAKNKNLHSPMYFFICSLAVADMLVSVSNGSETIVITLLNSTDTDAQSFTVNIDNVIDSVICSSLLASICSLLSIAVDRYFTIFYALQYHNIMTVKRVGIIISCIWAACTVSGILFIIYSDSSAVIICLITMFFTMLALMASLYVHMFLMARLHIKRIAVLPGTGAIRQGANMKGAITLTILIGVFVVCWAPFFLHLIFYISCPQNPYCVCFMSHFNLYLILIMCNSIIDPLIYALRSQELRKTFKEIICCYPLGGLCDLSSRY

Target: T1, human recombinant melanocortin-4 receptor (human, UniProt P32245 1-332)
T1 construct: whole, on cells; cAMP assays used the whole cells; also called hMC4-R; MC4-R
Experiment: competitive inhibition of [I125]-NDP-α-MSH, hMC4-R HEK-293 membranes
Protocol: A competitive inhibition binding assay is performed using membrane homogenates prepared from HEK-293 cells that express recombinant hMC4-R, hMC3-R, or hMC5-R, and from B-16 mouse melanoma cells (containing endogenous MC1-R). In some instances, HEK-293 cells that express recombinant hMC1-R were employed. In the examples that follow, all MC3-R, MC4-R and MC5-R values are for human recombinant receptors. […] Membrane homogenates were incubated with 0.2 nM (for hMC4-R) 0.4 nM (for MC3-R and MC5-R) or 0.1 nM (for mouse B16 MC1-R or hMC1-R) [I¹²⁵]-NDP-α-MSH (Perkin Elmer) and increasing concentrations of test peptides of the present invention in buffer containing 25 mM HEPES buffer (pH 7.5) with 100 mM NaCl, 2 mM CaCl₂, 2 mM MgCl₂, 0.3 mM 1,10-phenanthroline, and 0.2% bovine serum albumin. […] Filters were dried and counted in a gamma counter for bound radioactivity. […] Maximal specific binding (100%) was defined as the difference in radioactivity (cpm) bound to cell membranes in the absence and presence of 1 μM NDP-α-MSH. […] Ki values for test peptides of the present invention were determined using Graph-Pad Prism® curve-fitting software.
9.1 Peptides of the following structures were synthesized by the general methods described above, and averaged MC4-R Ki values for peptides were determined as indicated. […] Ki values marked “ND” were not determined.

RDSFKWK (N-acetyl; D-Phe 4; side-chain lactam Asp2-Lys7; C-terminal amide, also called peptide No. 4) [Ac-Arg-cyclo(Asp-Ser-D-Phe-Lys-Trp-Lys)-NH2]
Ki: 4.29 µM
